Converted amounts (≈) assume the structure as drawn.

The term MIC denotes the lowest concentration that inhibits growth of the organism. The low end stands for inhibition by little substance, the high end for a need for much substance. One may read the IC50 as the midpoint of a concentration-inhibition curve. Higher therefore signals a need for much substance.

For one test, the system named is Escherichia coli. As to the kind of experiment: Antibacterial activity against imipenem-resistant Escherichia coli BL21(DE3) expressing VIM2 gene after 18 hrs by twofold serial broth dilution method. Type of test: functional. In outline: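 Two-fold serial broth dilution MIC per CLSI, 10-point dilutions in Iso-Sensitest broth, 2 mL tubes. BL21 grown 5 h at 37°C in LB (kanamycin 30 μg/mL for pET-9a VIM-2 transformants). Inoculum 5 × 10^5 CFU/mL; shaken ≥18 h at 37°C aerobically.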
(In general: In broth dilution the organism is exposed to a series of concentrations in liquid medium.)

Test [1] is described as follows: Inhibition of IMP1 using nitrocefin as substrate after 15 mins by microtiter plate assay.
Test [2] is described as follows: Inhibition of Enterobacter cloacae AmpC using nitrocefin as substrate after 15 mins by microtiter plate assay.
Test [3] can be described thus: Inhibition of TEM-1 using nitrocefin as substrate after 15 mins by microtiter plate assay.

In turn, `C[C@@H](O)[C@H]1C(=O)N2C(C(=O)O)=C(SCCNC=N)C[C@H]12` [IMIPENEM ANHYDROUS] had a minimal inhibitory concentration (MIC) against Escherichia coli of 1.9 µg/mL (≈ 6.35 µM).

`O=C1c2c(O)ccc(O)c2C(=O)c2c(NCCNCCO)ccc(NCCNCCO)c21` [MITOXANTRONE]: the IC50 in test [1] was greater than 56 µM; in test [2], greater than 25 µM; in test [3], greater than 25 µM.

The values are drawn from ChEMBL document CHEMBL1154107, “Inhibitors of VIM-2 by screening pharmacologically active and click-chemistry compound libraries” (Bioorg Med Chem, 2009).
